For one assay, the target named is Caldesmon (UniProt Q05682). Conditions: cited from earlier work.
For another assay, the target named is B50 (neuromodulin) (UniProt P17677). Conditions: cited from earlier work.
In assay [1] the target is TSC2 peptide (Homo sapiens) (UniProt P49815). The conditions noted are these: cited from earlier work.
The next assay has as its target Strep-GFP-tagged TSC2 (UniProt P49815). Briefly: co-IP; HiBiT lytic assay as a competition: purified His-CaM (0, 0.17, 0.25, 0.50, 1.0, 2.0, 4.0, 6.0 μM) with 100 μM CaCl2 added to the mixed lysates with Strep-GFP-TSC2 and HiBiT-Rheb; IC50 from the average of two independent experiments.

Among the data in publication PMC11787510 are Kd and IC50 values, retold here.

Calmodulin (from UniProt P0DP23): the figures for the Kd (with Caldesmon; with B50 (neuromodulin); in assay [1]) were 800 nM, 4200 nM and 1000 nM, respectively.
The substance “His-tagged calmodulin (His-CaM), wild type (from UniProt P0DP24 2-149) (natural protein)” yielded an IC50 in the assay with Strep-GFP-tagged TSC2 of 1100 nM.
